# Results reported in PubChem BioAssay AID624168 (Sanford-Burnham Center for Chemical Genomics, 2012).
# The entries are a selection whose mix differs from that of the whole data set. The source made the active and inactive calls.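 The calls were made as follows: active = activation of at least 8% versus controls, or a plate z-score of at least 8; inactive = the rest.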
# Assay: compounds raising alpha-dystroglycan glycosylation – uHTS, Pro5-aDG cells, AlphaScreen, primary screen (AID 624168);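 also: Pro5 are CHO cells carrying HIG-tagged alpha-DG that lacks glycosylation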
# Settings: alpha-DG glycosylation AlphaScreen (IIH6), at 10 µM, hits give high values, 0% Pro5, 100% B10-LARGE cell signal
row,Structure (SMILES),activation
1,O=P1(Nc2nc3ccc(Cl)cc3s2)COc2ccccc2O1 (stereo not drawn),inactive: 0%
2,CCOc1ccc(C2=NCC(CBr)S2)cc1 (stereo not drawn),inactive: 0.4%
3,CCc1cc(O)c([N+](=O)[O-])c(C)c1[N+](=O)[O-],inactive: -0.2%
4,CC(C)(C)C(=O)NC(Sc1ccccc1)C(Cl)(Cl)Cl (stereo not drawn),inactive: 0.2%
5,N#C/C(=C\c1ccc(N(CCBr)CCBr)cc1)C(N)=O,inactive: -0.1%
6,CC(=O)c1ccc(N2CC2c2ccncc2)cc1 (stereo not drawn),inactive: 0.3%
7,COC(=O)C1(C)COP(=O)(NCc2ccccc2)OC1 (stereo not drawn),inactive: -0.1%
8,Cc1ccccc1CN(C)C(=O)COC(=O)C(O)(c1ccccc1)c1ccccc1,inactive: 1.9%
9,C[C@@H]1C=CCP(=O)(Oc2ccccc2)O1 (stereo partly drawn),inactive: -0.3%
10,C[C@H]1OP(=O)(Oc2ccccc2)C[C@@H]2O[C@@H]21 (stereo partly drawn),inactive: -0.2%
11,CC(=O)Nc1ccc([As](=O)(O)O)c(O)c1,inactive: -0.1%
12,CC(=O)Nc1ccc(Oc2c([N+](=O)[O-])cc([N+](=O)[O-])cc2[N+](=O)[O-])cc1,inactive: 0%
13,O=C(NC1CCS(=O)(=O)C1)NP(=S)(Oc1ccccc1)Oc1ccccc1 (stereo not drawn),inactive: 0.1%
14,CCNC(=S)/N=C(\N)N[N+](=O)[O-],inactive: -0.4%
15,c1ccc(-c2nn[nH]n2)c(-c2nn[nH]n2)c1,inactive: -0.4%
16,Cc1ccc(NP(=O)(Oc2cccc(C)c2)Oc2cccc(C)c2)nc1,inactive: 0%
17,O=P1(N(CCCl)CCCl)OCCC2CCCCN21 (stereo not drawn),inactive: 0%
18,COC(=O)c1cc2c(s1)N=C(c1ccccc1)N(C)P2(=O)N1CCOCC1 (stereo not drawn),inactive: -0.2%
19,CC(=O)NC(SC(=S)N(CC(C)C)CC(C)C)C(Cl)(Cl)Cl (stereo not drawn),inactive: -0.6%
20,Cc1ccc(OP(=O)(Nc2ccccn2)Oc2ccc(C)cc2)cc1,inactive: 1.6%
21,O=C(OC1CN2CCC1CC2)c1ccccc1 (stereo not drawn),inactive: -0.1%
22,CCC(=O)N1C2C3N(C(=O)CC)C1C1N(C(=O)CC)C(C(N1C(=O)CC)N3C(=O)CC)N2C(=O)CC,inactive: -0.4%
23,Cc1ccccc1OP(=O)(Nc1ccccn1)Oc1ccccc1C,inactive: 0.3%
24,CC(NC(=O)COC(=O)C(O)(c1ccccc1)c1ccccc1)c1ccccc1 (stereo not drawn),inactive: 0%
25,CN(C)C(=O)Oc1noc2ccccc12,inactive: 0.1%
26,O=c1c2cc([N+](=O)[O-])ccc2[nH]c2c([N+](=O)[O-])cc([N+](=O)[O-])cc12,inactive: -0.4%

row,Structure (SMILES),activation
1,Nc1ccc(CCCCOc2ccccc2)cc1,inactive: -0.1%
2,COc1ccc(N)c([N+](=O)[O-])c1[N+](=O)[O-],inactive: 0.2%
3,CN(C)C1(CNC(=O)c2ccc(Cl)c(S(N)(=O)=O)c2)CCCCC1,inactive: -0.1%
4,O=P(Nc1ccccn1)(c1ccc(Br)cc1)c1ccc(Br)cc1,inactive: 0.7%
5,O=P(Nc1nc2ccccc2s1)(c1ccccc1)c1ccccc1,inactive: -0.1%
6,C[C@H]1OP(=O)(Oc2ccccc2)[C@H](O)[C@H](O)[C@H]1N=[N+]=[N-] (stereo partly drawn),inactive: -0.2%
7,CC(=O)NC(SC(=S)N(C)C)C(Cl)(Cl)Cl (stereo not drawn),inactive: -0.1%
8,O=[N+]([O-])c1ncn(CCn2cnc([N+](=O)[O-])n2)n1,inactive: 0%
9,O=[N+]([O-])c1ccc(O)c(/C=N/Nc2ccc([N+](=O)[O-])cc2[N+](=O)[O-])c1,inactive: -0.4%
10,O=[As](O)(c1ccccc1)c1ccc(O)cc1,inactive: 0%
11,Nc1ccc([As](=O)(O)c2ccc([N+](=O)[O-])cc2)cc1,inactive: 0.5%
12,C(Cc1nn[nH]n1)Cc1nn[nH]n1,inactive: -0.1%
13,O=C(OC1CN2CCC1CC2)c1cccc(Cl)c1 (stereo not drawn),inactive: -0.1%
14,O=P(Nc1nccs1)(c1ccccc1)c1ccccc1,inactive: -0.4%
15,CC(C)C(=O)NC(Sc1ccccc1)C(Cl)(Cl)Cl (stereo not drawn),inactive: 0.2%
16,c1nnnn1CCn1cnnn1,inactive: -0.3%
17,COc1ccc(C2=NCC(CBr)S2)cc1 (stereo not drawn),inactive: 0.8%
18,CC(=O)N1C2C3N(C(C)=O)C1C1N(C(C)=O)C(C(N1C(C)=O)N3C(C)=O)N2C(C)=O,inactive: 0.1%
19,O=[N+]([O-])c1cccc2n[nH]nc12,inactive: -0.1%
20,Cc1ccc(NP(=O)(Oc2ccccc2)Oc2ccccc2)nc1,inactive: -0.1%
21,O=[N+]([O-])c1cc([N+](=O)[O-])c(CCNc2ccccc2)c([N+](=O)[O-])c1,inactive: 1%
22,CCc1nc2c(n1)c1c(non1O)c1c2no[n+]1[O-],inactive: 0.2%
23,Nc1ccc([As](=O)(O)c2ccc(N)cc2)cc1,inactive: 0%
24,C[N+]1=C2C=CC=CC=C2SC12C([N+](=O)[O-])=CC([N+](=O)[O-])=C[C-]2[N+](=O)[O-] (stereo not drawn),inactive: -0.2%
25,CCN(/C(=N/P(=O)(N1CCOCC1)N1CCOCC1)N1CCOCC1)c1ccc(OC)cc1,inactive: -0.3%
26,CC(C)=N/N=C(\N)N[N+](=O)[O-],inactive: 0%

row,Structure (SMILES),activation
1,CC(C)c1nc(Nc2ccccc2)n(P(=O)(N(C)C)N(C)C)n1,inactive: 0.2%
2,CN(C)C(=O)OCCc1n(C)cc[n+]1C,inactive: -0.1%
3,c1cc(-c2nn[nH]n2)ccc1-c1nn[nH]n1,inactive: 0%
4,CC1CCN(C(=O)Oc2c(Cl)cc(Cl)c3cccnc23)CC1,inactive: -0.1%
5,O=P1(N(CCCl)CCCl)OCCCS1 (stereo not drawn),inactive: 0.3%
6,O=C(Nc1cc([As](=O)(O)O)ccc1O)c1ccccc1,inactive: -0.1%
7,CC(C)(C)C(=O)NC(Sc1ccncn1)C(Cl)(Cl)Cl (stereo not drawn),inactive: 0.1%
8,O=[N+]([O-])c1ncn(CCn2ncnc2[N+](=O)[O-])n1,inactive: 0.5%
9,O=[N+]([O-])c1cccc(NC2=NCC(CBr)S2)c1 (stereo not drawn),inactive: -0.2%
10,COC(=O)C1(C)COP(=O)(Nc2ccccc2)OC1 (stereo not drawn),inactive: 0%
11,O=C(O)CNc1ccc([As](=O)(O)O)cc1,inactive: -0.3%
12,O=C(O)c1ccccc1[As](=O)(O)O,inactive: -0.2%
13,CC(=O)Nc1ccc([As](=O)(O)O)cc1,inactive: 0%
14,CCCC1OP(N)(=O)OCC1CC (stereo not drawn),inactive: -0.1%
15,CN(C)P(=O)(N(C)C)n1c(Nc2ccccc2)nnc1-c1ccccc1,inactive: 0.3%
16,O=P(Nc1nc2ccc(Cl)cc2s1)(c1ccccc1)c1ccccc1,inactive: 0%
17,CCOP(=O)(Nc1ccccc1)OCC,inactive: -0.1%
18,Cc1cc(SC(NC(=O)c2ccc(F)cc2)C(Cl)(Cl)Cl)ncn1 (stereo not drawn),inactive: -0.2%
19,CN(C(=O)Cc1ccc(Cl)c(Cl)c1)[C@H]1CCCC[C@@H]1N1CCCC1,inactive: -0.4%
20,Cc1ccc(NP(=O)(Oc2ccccc2F)Oc2ccccc2F)nc1,inactive: -0.1%
21,CCN(N=Nc1nonc1N)c1nonc1N,inactive: 0.1%
22,Nc1cccc2ccc([As](=O)(O)O)cc12,inactive: 1.1%
23,NC(=O)c1cc([N+](=O)[O-])cc([N+](=O)[O-])c1N,inactive: 0.3%
24,CN(C(=O)Cc1ccc(Cl)c(Cl)c1)[C@H]1CCCC[C@H]1N1CCCC1,inactive: 0.3%
25,Cc1ccc(N/C(=N/P(=O)(N2CCOCC2)N2CCOCC2)N2CCOCC2)cc1,inactive: -0.1%
26,COc1ccccc1OP(=O)(Nc1ccc(C)cn1)Oc1ccccc1OC,inactive: -0.2%

row,Structure (SMILES),activation
1,Cc1ccc(OP(=O)(Nc2nccs2)Oc2ccc(C)cc2)cc1,inactive: 0.1%
2,Clc1ccc(Cl)c(NC2=NCC(CBr)S2)c1 (stereo not drawn),inactive: -0.1%
3,CN1CCCC(OC(=O)C(c2ccccc2)c2ccccc2)C1 (stereo not drawn),inactive: 0.2%
4,CC(C)CC(=O)NC(Sc1ccc(Cl)cc1)C(Cl)(Cl)Cl (stereo not drawn),inactive: -0.1%
5,Nc1cc(N)c2nonc2c1[N+](=O)[O-],inactive: -0.1%
6,Oc1ccccc1CNc1ccccn1,inactive: 0.1%
7,O=C(NC(Sc1ccncn1)C(Cl)(Cl)Cl)c1ccccc1 (stereo not drawn),inactive: -0.2%
8,O=[N+]([O-])C1C(O)C(O)C([N+](=O)[O-])C(O)C1O (stereo not drawn),inactive: -0.2%
9,O=C(OC1CN2CCC1CC2)C12CC3CC(CC(C3)C1)C2 (stereo not drawn),inactive: -0.2%
10,Cc1cc(=O)[nH]c(N[N+](=O)[O-])n1,inactive: 0.1%
11,Cc1c2c(nc3ccccc13)SC(C(Cl)Cl)C2 (stereo not drawn),inactive: 0%
12,COc1ccc2nc(NP(=O)(c3ccccc3)c3ccccc3)sc2c1,inactive: -0.2%
13,COc1cc(I)ccc1[As](=O)(O)O,inactive: -0.2%
14,O=P1(N(CCCl)CCCl)OCCCN1CCCl (stereo not drawn),inactive: 0.1%
15,O=P1(N(CCCl)CCCl)Nc2ccccc2N1,inactive: -0.4%
16,COc1ccc(N/C(=N/P(=O)(N2CCOCC2)N2CCOCC2)N2CCOCC2)cc1,inactive: -0.1%
17,O=[N+]([O-])c1cc(Oc2ccc([N+](=O)[O-])cc2C(F)(F)F)cc([N+](=O)[O-])c1,inactive: 1.2%
18,C[As](=O)(O)c1cccc(C(=O)O)c1,inactive: 0.1%
19,O=[As](O)(c1ccc(O)cc1)c1ccccc1O,inactive: -0.1%
20,COc1cc(C(=O)NCC2(N3CCOCC3)CCCCC2)ccc1OCC(C)C,inactive: -0.1%
21,O=[N+]([O-])c1ccc(-c2cc([N+](=O)[O-])c(O)c([N+](=O)[O-])c2)cc1,inactive: 0.3%
22,Cc1ccc2nc3c(c(C)c2c1)CC(C(Cl)Cl)S3 (stereo not drawn),inactive: 0.4%
23,Cc1ccc(OP(=O)(Nc2ccc([N+](=O)[O-])cn2)Oc2ccc(C)cc2)cc1,inactive: 0.3%
24,[N-]=[N+]=NC1CCCCC1NC(=O)c1cc([N+](=O)[O-])cc([N+](=O)[O-])c1 (stereo not drawn),inactive: 0.1%
25,CC(C)c1ccc(OP(=O)(Nc2ccccn2)Oc2ccccc2F)cc1 (stereo not drawn),inactive: 0.5%
